Drawing on patent US20230220081A1 (published 2023), this text covers Kd for 1 molecule.

The test concerns the target 21480B. Kind of test: Octet.

B1: 15593 (PD-1) (receptor)
chain: LDSPDRPWNPPTFSPALLVVTEGDNATFTCSFSNTSESFVLNWYRMSPSNQTDKLAAFPEDRSQPGQDCRFRVTQLPNGRDFHMSVVRARRNDSGTYLCGAISLAPKAQIKESLRAELRVTERRAEVPTAHPSPSPRPAGQFQ
Regarding B1, binding was put at a Kd of 1.91 nM.

In general, Kd refers to a measure of binding affinity in units of concentration. A low value points to a tighter complex.
